Consider one molecule from publication PMC4844572 (SpringerPlus, 2016).

SMILES strings stand for the structures.

The test has as its system EstSTR1. Nature of the test: UV absorbance ([…] nm), competition with reporter substrate cephalothin. Particulars: competitive against 100 μM cephalothin; 10 mM MES pH 6.8, bovine serum albumin 20 μg/ml, enzyme 396 μM as printed; stands in Km column, footnote gives Ki.

With `CO/N=C(\C(=O)N[C@@H]1C(=O)N2C(C(=O)[O-])=C(C[N+]3(C)CCCC3)CS[C@H]12)c1csc(N)n1`, the “Km (μM) / Wild” value came to 0.19 ± 0.003 µM.
